Consider one compound from patent publication US7074822B2, “Alkyl carbamate-substituted β-lactones, process for their preparation, and pharmaceutical compositions containing them” (Solvay Pharmaceuticals GmbH, priority 2004, dated 2006).

Chains of the proteins cited; added tags and fusions are not shown.
UniProt P00591, whole entry: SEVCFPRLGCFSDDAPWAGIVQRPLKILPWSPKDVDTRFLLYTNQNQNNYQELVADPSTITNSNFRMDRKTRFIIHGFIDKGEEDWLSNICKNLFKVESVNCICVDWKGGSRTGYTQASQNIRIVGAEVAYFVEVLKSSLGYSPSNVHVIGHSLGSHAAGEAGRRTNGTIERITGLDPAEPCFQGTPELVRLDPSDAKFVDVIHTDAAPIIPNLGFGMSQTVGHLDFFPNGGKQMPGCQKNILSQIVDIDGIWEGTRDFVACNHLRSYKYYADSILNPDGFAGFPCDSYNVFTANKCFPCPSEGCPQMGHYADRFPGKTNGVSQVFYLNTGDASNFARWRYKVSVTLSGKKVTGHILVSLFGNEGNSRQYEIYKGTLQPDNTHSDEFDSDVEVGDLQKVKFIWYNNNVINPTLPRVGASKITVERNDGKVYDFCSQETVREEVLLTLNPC

pIC50: −log10 of the molar value.

This test addresses porcine pancreatic lipase (Sus scrofa, UniProt P00591). Nature of the test: Olive oil test: inhibition of porcine pancreatic lipase with respect to triglycerides in olive oil (pH-stat titration). Conditions: read-out: IC50, porcine pancreatic lipase-inhibiting action in vitro with respect to triglycerides in olive oil; substrate olive oil emulsion, pH 9.0, 37.0° C., 10 minutes pre-incubation in ice bath. How it is done:
In a heterogeneous reaction, the inhibition of the lipolytic action of porcine pancreatic lipase was determined under the influence of the test substances of Formula I with respect to the triglycerides contained in the test substrate olive oil. The fatty acids released by the lipase were titrated with sodium hydroxide solution to pH 9.0.
The reagents given below were prepared:
A. Gum Arabic Solution 10% (m/V)
200 g gum arabic (Acaciae gummi in accordance with the specifications of the German Pharmacopeia (=DAB)/European Pharmacopeia (=Ph.Eur.) was dissolved in 2000 ml ultrapure water with stirring and if necessary centrifugation. The solution was stored at −20° C. in plastic vessels of capacity of 250 ml. The amount required per day was thawed as required.
B. Sodium Taurocholate Solution 8% (m/V)
8 g sodium taurocholate (FIP) was dissolved in 100 ml ultrapure water.
60.6 mg Tris(hydroxymethyl)aminomethane p.a. (Merck, No. 8382) and 234 mg sodium chloride (p.a.) were dissolved in 100 ml ultrapure water.
D. 0.1 N Sodium Hydroxide Solution […]
1 ml lipase reference suspension was incubated with the respective amount of inhibitor solution for 10 minutes in an ice bath. […] The sodium hydroxide consumption between the 1st and the 5th minute was evaluated. […]

The pIC50 is the negative decadic logarithm of the IC50, by convention in mol/L. As for `CCCCCCC1C(=O)OC1CCCCOC(=O)Nc1ccc(Oc2ccccc2)cc1` (stereo not shown), the negative logarithm of the IC50 (pIC50) was 7.12.
